Assay results from patent publication US4154967A, “Process for preparation of phenols” (Mitsui Petrochemical Industries, Ltd., priority 1976, dated 1979).
Some compounds may have been tested in ways that are not shown here.

Details: 25° C., 96% ethanol made up with carbonate-free water; 0.01 to 0.05 M; about 20, 40 or 60% neutralized

Q: Which acid dissociation constant (pKa) does the source give for `O=[N+]([O-])c1cc([N+](=O)[O-])c(S)c([N+](=O)[O-])c1` here?
A: 3.2
